Patent publication US7105725B2, “Pathogen resistant transgenic plants expressing CEMA or CEMA-related peptides” (University of Victoria Innovation and Development …, priority 1999, dated 2006)

Test: preliminary feeding trials of transgenic tubers
Settings: feeding for a month, tubers from ECEMA-expressing transgenic potato plants

SMILES: CC[C@H](C)[C@H](NC(=O)CNC(=O)[C@@H](NC(=O)[C@H](CCCCN)NC(=O)[C@H](CCCCN)NC(=O)[C@H](Cc1ccccc1)NC(=O)[C@H](CC(C)C)NC(=O)[C@H](CCCCN)NC(=O)[C@H](Cc1c[nH]c2ccccc12)NC(=O)[C@H](CCCCN)NC(=O)[C@H](CCSC)NC(=O)[C@H](Cc1c[nH]cn1)NC(=O)[C@H](CCC(=O)O)NC(=O)[C@H](CC(C)C)NC(=O)[C@H](C)NC(=O)[C@@H](N)CCSC)[C@@H](C)CC)C(=O)NCC(=O)N[C@@H](C)C(=O)N[C@H](C(=O)N[C@@H](CC(C)C)C(=O)N[C@@H](CCCCN)C(=O)N[C@H](C(=O)N[C@@H](CC(C)C)C(=O)N[C@H](C(=O)N[C@H](C(=O)NCC(=O)N[C@@H](CC(C)C)C(=O)N1CCC[C@H]1C(=O)N[C@@H](C)C(=O)N[C@@H](CC(C)C)C(=O)N[C@@H](CCCCN)C(=O)N[C@@H](CC(C)C)C(=O)N[C@H](C(=O)N[C@@H](CCCCN)C(=O)O)[C@@H](C)O)[C@@H](C)O)[C@@H](C)O)C(C)C)C(C)C [ECEMA]
- toxicity of tubers to mice: not toxic
